One molecule from PubChem BioAssay AID624296 (National Center for Advancing Translational Sciences (NCATS), 2012) can be followed below.

This is a selection; strong and weak results do not stand in their true shares. Results filed as inconclusive are left out. Activity calls are given as the source filed them. Calls follow the shape of the dose curve; as a rule, active = well fitted activation curve with a large enough effect; inconclusive = small, poorly fitted or top-dose-only effect; inactive = no such curve, though single readings can be large or run the other way.

The nature of the experiment: A quantitative high throughput screen for small molecules that induce DNA re-replication in MCF 10a normal breast cells. Also: % of control where 0% means no effect; nearly all actives have a fitted effect of over 50% in size. The note with it: MCF 10A DNA re-replication, Hoechst nuclear intensity, 48 h; at 46.1 µM (top of the series).
As for `O=C(OCCCN1CCCC1)C(O)(c1ccccc1)C1CCCCC1` (stereo unspecified), the activity, positive = re-replication was inactive: -9.15%.
